Literature values, collected in patent US10976308B2, “Plant-derived nanofibrillar cellulose hydrogel for cell culture and chemical testing” (UPM-KYMMENE CORPORATION, priority 2014, dated 2021).

Key:
[1] = according to Khetani et al
3D liver models = conditions: by Khetani et al. 2013

In the case of `O=C(O)Cc1ccccc1Nc1c(Cl)cccc1Cl` [diclofenac], the “Clinical drug-induced liver injury (DILI)” value [1] is given as “displays clinical DILI” and the “Toxicity in 3D liver models” value (3D liver models) is given as “shows toxicity in all tested 3D models”.
